# Apparent affinities of Ab-14 variants for a coronavirus HR2 peptide

Values reported by Li et al. 2023, doi:10.1038/s41467-023-39022-2 (FLAb copy).

Binding partner: SARS-CoV-2 spike HR2 peptide, sequence PDVDLGDISGINAS.

Parent: Ab-14, a human scFv built as VH, a (GGGGS)3 linker, VL. Only the CDRs of the light chain vary.
VH: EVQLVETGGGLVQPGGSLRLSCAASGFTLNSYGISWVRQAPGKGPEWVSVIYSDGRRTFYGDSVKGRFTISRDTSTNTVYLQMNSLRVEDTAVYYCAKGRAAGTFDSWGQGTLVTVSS
VL: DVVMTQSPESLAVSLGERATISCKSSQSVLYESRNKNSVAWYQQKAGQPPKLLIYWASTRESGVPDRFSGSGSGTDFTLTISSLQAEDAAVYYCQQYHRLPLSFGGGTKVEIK

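The starting antibody came from a phage panning campaign against this peptide. Designed CDR sequences, proposed from the first random library and measured here. Several design methods are mixed in this list. The assay is AlphaSeq: two haploid yeast populations carry antibody and antigen on their surface. After mating in shaken culture at 30 °C for 16 h, diploids were selected and their barcode pairs sequenced. The ratio of observed to expected reads was calibrated, replicate by replicate, on BCL2-family standards whose Kd was known from biolayer interferometry. The assay was run in six technical replicates.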

Variants are written as CDR1, CDR2 and CDR3 of the light chain (limits as in the source). Parent: KSSQSVLYESRNKNSVA, WASTRES, QQYHRLPLS. This list holds designs with at most six substitutions. Each Kd is an estimate from the mating assay, the geometric mean of the replicates in which the pair was seen; lower is stronger. "not detected" means that the variant was in the library but no mating with the target was seen in any replicate; the authors take this as a sign of poor binding, and no number exists. Values of this round are not directly comparable with the first-round values of the same sequences. The authors averaged sequences with at least three values out of six and counted those with two or fewer as poor binders. Background: pairings of all light chain designs with three empty control strains gave a value in 4% of cases (median 430 nM, 5th percentile 38 nM). Values in that range, when seen in few replicates, are hard to tell from nonspecific mating. Of ten entries with the parent sequence, four were seen in most replicates (averages 2.2 nM to 240 nM), three in one and three in none, so single entries are noisy.

CDR-L1,CDR-L2,CDR-L3,apparent Kd,detected
KFSQWNLYESRTKNSVA,NASTRES,QQYHRLPLS,2.1 nM,6/6
KSSQSWLYESRNKNSVA,GASTRED,QQYHRLPLS,500 pM,6/6
KSSQSWLYESRNKNSVA,GASKREV,QQYHRLPLS,600 pM,6/6
KLSQSVLYESRNSNSVA,DASTRED,QQYHRLPLS,330 pM,6/6
KSSQSVLMESRNKNGVA,WASTRES,QQYHRLPLS,200 nM,2/6
KSSQSVLYESRNCNSVA,EASTRES,QQYHRLPLS,4.3 nM,6/6
KLPQSELYESRNKNSVA,EASQRES,QQYHRLPLS,770 pM,6/6
KSSQSVLYESRNSNQVA,EASTREC,QQVHRLPLS,15 nM,6/6
KSSISYLGEKRNKNSVA,DASTRES,QQYHRLPLS,1.0 nM,6/6
KQSQSVLMESRNKNSVA,DASTRES,QQYVRLPLS,480 pM,6/6
KLAQSWLYESRNKNSVA,EASTRES,QQYHRLPLS,540 pM,6/6
KFMQSMGYESRNKNSVA,QASTRSS,QQYHRLPLS,2.4 nM,6/6
KLSQSVLYESRNFNSVA,NASQRES,QQYHRLPLS,3.0 nM,6/6
KLSQSELYESRNKWSVA,NASTRES,QQYHRLPLS,1.6 nM,6/6
KSSQSVLDESDNKNSVA,AASTREL,QQVHRLPLS,130 nM,1/6
KSSISYEYESRNENSVA,EASTREQ,QQYHRLPLS,1.2 nM,6/6
KVSQSNLYESRNKNSVA,NASTREQ,QQYHRLPLS,780 pM,6/6
KSSQSDLYESRNKNSVA,HASTRES,QQYHRLPLS,1.2 nM,6/6
KSSYSYLGEKRNKNSVA,EASTRES,QQYHRLPLS,2.8 nM,6/6
KIMQSVLYESRNKNSVA,WASTRES,QQYWREPLS,not detected,0/6
HLSDSVLYESRNKNSVA,NASTRES,QQYHRLPLS,410 pM,6/6
KYSQSVLEESRNKNSVA,DASTRES,QQYHRLPLS,1.2 nM,6/6
KQSQLKLYESRNKNSVA,DASTRES,QQYHRLPLS,760 pM,6/6
KLSQSDLYESRNKNNVA,GASQRES,QQYHRLPLS,530 pM,6/6
KLSQSVLYESRQKNSVA,NASTRMQ,QQYHRLPLS,1.4 nM,6/6
KSPQSVRYESRNKNSVA,GASTRES,QQVHRPPLS,not detected,0/6
KSSISDLYESRNENSVA,EASTREQ,QQYHRLPLS,1.7 nM,6/6
KLSGSVLFESRNKNSVA,NASTRES,QQYHRLPLS,430 pM,6/6
KSSQSGLYESPNKNSVA,RASTRES,QQYHHLPLS,10 nM,6/6
KLSQSMLYESRNPNSVA,NASTRES,QQYHRLPLS,not detected,0/6
KLMQSELYESRNKNSVA,NASTRES,QQYHRLPLS,690 pM,6/6
KLSQSDLYESRNKNSVA,NASTRFS,QQYHRLPLS,3.1 nM,6/6
KSSQSVLDESRNKESIA,HASTRES,QSYHRLPLS,2.3 nM,6/6
KFSQSWLYESRNKNSVA,HASTREQ,QQYHRLPLS,3.6 nM,6/6
QSSQSVLYESRNKNSVA,GASTRES,QQYHRLPLS,5.0 nM,6/6
KLSQSWLYESRNFWSVA,NASTRES,QQYHRLPLS,2.2 nM,6/6
KLSQSQLYEDRNKNSVA,NASQRES,QQYHRLPLS,130 nM,3/6
KSSQPVMYESRNKNSVA,WASTRES,QQYHRLPLS,380 nM,3/6
KLQQSVPYESRNKNSVA,GASTRES,QQYHRLPLS,390 pM,6/6
KSSQSVYYESRNKNSVA,WASERES,QQYHRLPLS,not detected,0/6
KISQSVLYNSRNTNSVA,WASTRES,QQYHRLPLS,5.1 nM,6/6
KLSQSELYESRNWNSVA,NASTRLS,QQYHRLPLS,1.3 nM,6/6
KSLQSHLYESRNFNSVA,HASTRED,QQYHRLPLS,9.0 nM,6/6
KSSISYLYESRNKNSVA,NASERES,QQYHRLPLS,1.5 nM,6/6
KSSQSVTYESRNKNSVA,WASTRES,QQYHRLKLS,not detected,0/6
KSSQSVLWEWRNKNSVA,WASTRWS,QQYAILPLK,not detected,0/6
KSSQSVLYESRNKNSVA,WKQTRES,QQYHRLPLS,not detected,0/6
KLWQSWLYESRNKNSVA,NASTRES,QQYHRLPLS,750 pM,6/6
KSSIGYLYESRNKNSVA,EASTREQ,QQYHRLPLS,930 pM,6/6
KSSSSVLYESRNKNSVA,WASTRES,QQYERLPLS,1.1 nM,6/6
KSSQSVLYESLNKNSVA,KASTRES,QQYHRLPLS,11 nM,6/6
KFSQSDLYEDRNKNSVA,NASQRES,QQYHRLPLS,520 pM,6/6
KSSQSVLYESFNKNSVA,AASTRES,QQYHRLPLS,8.3 nM,6/6
KVSMSVLYESRVKNSVA,NASTRES,QQYHRLPLI,2.4 nM,6/6
KFSQSVDYEQRQKNSVA,NASTRMS,QQYHRLPLS,5.3 nM,6/6
SSSQEVMYESRNKNSVA,WASTRES,QQYHRLPLS,95 nM,2/6
KSSQSTLYESRNKNSVA,KASTRES,QQYHRLPLM,2.2 nM,6/6
KLSQSVEYESRNKNSVA,DAQTRES,QQYHRLPLS,380 pM,6/6
KSSQSVKQESRNKNSVA,DASTRES,QQYHRLPLS,1.1 nM,6/6
KLSQSDLYQSRNKNSVA,EASTRES,QQYHRLPLS,300 pM,6/6
DVSQSVLYESRNNNAVA,WASTRES,QQYHRLPLS,7.0 nM,6/6
KLSQSQLYESRNKNSVA,EASTREV,QQYHRLPLS,730 pM,6/6
KSSQSVLYESTNENSVA,WAVTRES,QQYHRLPIS,6.0 µM,2/6

From the list, the first 7 with no signal in any replicate:

{"CDR-L1": "KIMQSVLYESRNKNSVA", "CDR-L2": "WASTRES", "CDR-L3": "QQYWREPLS", "apparent Kd": "not detected", "detected": "0/6"}
{"CDR-L1": "KSPQSVRYESRNKNSVA", "CDR-L2": "GASTRES", "CDR-L3": "QQVHRPPLS", "apparent Kd": "not detected", "detected": "0/6"}
{"CDR-L1": "KLSQSMLYESRNPNSVA", "CDR-L2": "NASTRES", "CDR-L3": "QQYHRLPLS", "apparent Kd": "not detected", "detected": "0/6"}
{"CDR-L1": "KSSQSVYYESRNKNSVA", "CDR-L2": "WASERES", "CDR-L3": "QQYHRLPLS", "apparent Kd": "not detected", "detected": "0/6"}
{"CDR-L1": "KSSQSVTYESRNKNSVA", "CDR-L2": "WASTRES", "CDR-L3": "QQYHRLKLS", "apparent Kd": "not detected", "detected": "0/6"}
{"CDR-L1": "KSSQSVLWEWRNKNSVA", "CDR-L2": "WASTRWS", "CDR-L3": "QQYAILPLK", "apparent Kd": "not detected", "detected": "0/6"}
{"CDR-L1": "KSSQSVLYESRNKNSVA", "CDR-L2": "WKQTRES", "CDR-L3": "QQYHRLPLS", "apparent Kd": "not detected", "detected": "0/6"}